In PubChem BioAssay AID662 (National Center for Advancing Translational Sciences (NCATS), 2007):
Values joined by “and” are separate entries in the source; they are usually repeats but may differ in a detail not shown here. Equal entries are not always repeated. The entries are a selection whose mix differs from that of the whole data set. Records with an inconclusive call do not appear. Active and inactive are the calls of the source. Calls follow the shape of the dose curve; as a rule, active = well fitted activation curve with a large enough effect in the signal ratio, with a control signal flat (not every such curve was filed as active); inconclusive = small, poorly fitted or top-dose-only effect, or effect the other way, or a change in a side signal; inactive = flat fitted curve, though single readings scatter; the % refers to the signal ratio.

Test: Cell signaling CRE-BLA (Fsk stim); also: % of control where 0% means no effect
Conditions: CHO CRE-bla reporter (cAMP response element driving beta-lactamase), forskolin EC10, beta-lactamase ratio
Source text: NIH Molecular Libraries Screening Centers Network [MLSCN]
NIH Chemical Genomics Center [NCGC]
Assay Provider: Marshall W. Nirenberg, U.S. National heart lung & blood institute
Memories persist for different lengths of time, from seconds or minutes to a lifetime. There are two kinds of memory: short-term memory (STM) and long-term memory (LTM). STM lasts for minutes to hours, which maybe mediated by modifications of molecules involved in synaptic functions. LTM lasts for days or longer, and may be due to the formation of new synapses or restructuring of existing synapses. LTM, but not STM, requires gene transcription and synthesis of proteins. CREB (cyclic-AMP Responsive Element Binding Protein) is one of the candidates plays an important role for enhancement of some types of LTM. CREB, a family of transcription factors, regulates the transcription of genes containing cAMP Responsive Elements (CRE). CRE is a nucleotide sequence often found in the promoter regions of genes that are binding sites for CREB.
Using a beta-lactamase reporter-gene under control of cAMP responsive element, a cell-based assay [CellSensor(TM) CRE-bla CHO developed by Invitrogen Corp.] was used to measure forskolin-induced signaling. Library compounds were measured for their ability to modulate positively or negatively the action of EC10 NKH 477, a water soluble forskolin, on reporter gene activity. Compounds were screened in a titration series in 1536-well format. Positive and negative modulators were identified based on the AC50 values derived from the screening data.
NCGC Assay Protocol Summary
2000 cells/5uL in Opti-MEM medium containing 0.5% dialyzed FBS, 0.1 mM NEAA, 1 mM sodium pyruvate and 10 mM HEPES was dispensed into 1536-well plates and cells were cultured at 37 degrees Celsius overnight. […] And then the plates were incubated at 37 degrees Celsius for 3 hours. 1 uL of CCF4-dye mixture was added to each well. After incubated at room temperature for 2 hours the plates were measured on an EnVision plate reader at Excitation 405nm, Emission1=460nm and Emission 2=530nm. The %Activity was determined from the ratio of 460nm/530nm.
Keywords: NIH Roadmap, MLSCN, MLSMR, qHTS, NCGC, CRE, beta-lactamase reporter-gene assay.

[1] = at 38.2 µM (top of the series) unless noted

c1nnnn1CCn1cnnn1
activity change, negative = inhibition [1]: inactive: -6.13%

O=P(Nc1nccs1)(c1ccccc1)c1ccccc1
activity change, negative = inhibition [1]: inactive: 1.14%

C[C@@H](O)COc1ccc([As](=O)(O)O)cc1N
activity change, negative = inhibition [1]: inactive: 2.43% [at 7.6 µM]

CN1CCC[C@H](OC(=O)C(c2ccccc2)c2ccccc2)C1
activity change, negative = inhibition [1]: inactive: 3.5% [at 7.6 µM]

[N-]=[N+]=Nc1ccc([As](=O)(O)O)cc1
activity change, negative = inhibition [1]: inactive: 8.14% [at 7.6 µM]

O=C(OC1CN2CCC1CC2)c1cccc(Cl)c1 (centres undefined)
activity change, negative = inhibition [1]: inactive: -12.5%

COC(=O)c1cc2c(s1)N=C(c1ccccc1)N(C)P2(=O)N1CCOCC1 (centres undefined)
activity change, negative = inhibition [1]: inactive: -8.7%

O=P1(Nc2nc3ccc(Cl)cc3s2)COc2ccccc2O1 (centres undefined)
activity change, negative = inhibition [1]: inactive: -6.1%

O=[N+]([O-])c1ccc(C[As](=O)(O)O)cc1
activity change, negative = inhibition [1]: inactive: 7.73% [at 7.6 µM]

CN(C(=O)Cc1ccc(Cl)c(Cl)c1)[C@H]1CCCC[C@@H]1N1CCCC1
activity change, negative = inhibition [1]: inactive: -15% and inactive: -17.9%

C(Cc1nn[nH]n1)c1nn[nH]n1
activity change, negative = inhibition [1]: inactive: -0.38% [at 7.6 µM]

[N-]=[N+]=NCC(O)CN=[N+]=[N-] (centres undefined)
activity change, negative = inhibition [1]: inactive: 0.115% [at 7.6 µM]

CN(C(=O)Cc1ccccc1)[C@@H]1CC[C@@]2(CCCO2)C[C@H]1N1CCCC1
activity change, negative = inhibition [1]: inactive: -9.01%

O=C(COc1ccccc1)OC1CN2CCC1CC2 (centres undefined)
activity change, negative = inhibition [1]: inactive: -12.2%

O=C(O)[C@@H](O)c1ccc([As](=O)(O)O)cc1
activity change, negative = inhibition [1]: inactive: 6.96% [at 7.6 µM]

CN(N=O)C(=N)N[N+](=O)[O-]
activity change, negative = inhibition [1]: inactive: 14.9%

O=[As]c1ccc(S(=O)(=O)NCCO)cc1 (centres undefined)
activity change, negative = inhibition [1]: inactive: 1.3% [at 7.6 µM]

[N-]=[N+]=NCC(N)=O
activity change, negative = inhibition [1]: inactive: 7.56% [at 7.6 µM]

NC(=O)Nc1cc([As](=O)(O)O)cc(I)c1O
activity change, negative = inhibition [1]: inactive: -1.87% [at 7.6 µM]

O=C(OC1CN2CCC1CC2)C12CC3CC(CC(C3)C1)C2 (centres undefined)
activity change, negative = inhibition [1]: inactive: 6.56%

CN(C(=O)Cc1ccc(Cl)c(Cl)c1)[C@@H]1CC[C@@]2(CCCO2)C[C@H]1N1CCCC1
activity change, negative = inhibition [1]: inactive: -3.73%

NS(=O)(=O)Cc1ccc([As](=O)(O)O)cc1
activity change, negative = inhibition [1]: inactive: 3.36% [at 7.6 µM]

O=C(CC(=O)c1ccccc1)O[C@H]1CN2CCC1CC2
activity change, negative = inhibition [1]: inactive: -5.86% [at 7.6 µM]

O=[As](O)(O)c1ccc([As](=O)(O)O)cc1
activity change, negative = inhibition [1]: inactive: 4.49% [at 7.6 µM]

CCOP1(=S)c2c(C)nn(CCC#N)c2N=C(c2ccccc2F)N1C (centres undefined)
activity change, negative = inhibition [1]: inactive: 11.8%

CCOP1(=S)c2c(C)nn(CCC#N)c2N=C(c2ccc(F)cc2)N1C (centres undefined)
activity change, negative = inhibition [1]: inactive: 20.2%

NC(=O)Nc1ccc([As](=O)(O)O)cc1
activity change, negative = inhibition (at 17.1 µM (top of the series)): inactive: -0.394% | activity change, negative = inhibition (at 38.2 µM (top of the series)): inactive: -1.54%

Cc1nn(-c2ccccc2)c2c1P(=O)(N1CCOCC1)N(C)C(c1ccccc1)=N2 (centres undefined)
activity change, negative = inhibition [1]: inactive: -7.62%

O=P1(Nc2ncccn2)COc2ccccc2OC1
activity change, negative = inhibition [1]: inactive: 12.2%

Clc1n[nH]nc1-c1nn[nH][15n]1
activity change, negative = inhibition [1]: inactive: -0.781%

O=P1(Nc2ccccn2)COc2ccccc2OC1
activity change, negative = inhibition [1]: inactive: 4.41%

CN(CCCl)Cc1cc(Cl)c(NC2=NCCN2)c(Cl)c1
activity change, negative = inhibition [1]: inactive: -3.26%

CN(C(=O)Cc1ccc(Cl)c(Cl)c1)[C@@H]1CCCC[C@H]1N1CCCC1
activity change, negative = inhibition [1]: inactive: -2.36% [middle of 4 runs]
